Measured values from ChEMBL document CHEMBL5550170, “Discovery of novel benzimidazole derivatives as selective and reversible monoamine oxidase B inhibitors for Parkinson's disease treatment” (Eur J Med Chem, 2024).

Protein sequences, listed by entry. Tags and fused reporters are not part of them.
UniProt P21397, whole entry: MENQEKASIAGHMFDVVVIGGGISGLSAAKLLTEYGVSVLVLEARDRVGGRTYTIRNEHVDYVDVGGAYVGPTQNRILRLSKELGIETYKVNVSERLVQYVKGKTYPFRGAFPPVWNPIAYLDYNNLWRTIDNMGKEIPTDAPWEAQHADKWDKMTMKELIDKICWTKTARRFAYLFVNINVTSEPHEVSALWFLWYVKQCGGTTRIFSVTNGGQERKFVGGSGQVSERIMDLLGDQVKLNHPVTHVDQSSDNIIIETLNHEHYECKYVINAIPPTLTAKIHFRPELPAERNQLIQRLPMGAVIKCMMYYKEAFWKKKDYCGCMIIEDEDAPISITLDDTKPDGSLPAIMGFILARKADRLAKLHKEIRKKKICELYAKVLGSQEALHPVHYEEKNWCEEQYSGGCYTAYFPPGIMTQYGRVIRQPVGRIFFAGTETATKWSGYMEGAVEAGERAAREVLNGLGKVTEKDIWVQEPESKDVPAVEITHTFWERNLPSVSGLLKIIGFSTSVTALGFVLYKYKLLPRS

Legend:
in vivo [1] = conditions: Sprague-Dawley, rat, not told, iv
in vivo [2] = conditions: Sprague-Dawley, rat, po, 15 mg/kg
[3] = molecular target: Amine oxidase [flavin-containing] A (Homo sapiens, UniProt P21397)
in vivo [4] = conditions: Sprague-Dawley, rat, iv, 5 mg/kg
in vitro = conditions: rat, PC12 cells
in vivo [5] = conditions: Sprague-Dawley, rat, brain, iv, 17.5 mg/kg
in vivo [6] = conditions: Sprague-Dawley, rat, brain, iv, 4 mg/kg
in vivo [7] = conditions: Sprague-Dawley, rat, po, 15 mg/kg; remark: listed apart in the source

Papp (in vivo [1]): 5.26 ×10⁻⁶ cm/s | Cmax at 24 h (in vivo [2]): 13600 ng/mL | IC50 [3]: 26 µM | Cmax at 24 h (in vivo [4]): 4940 ng/mL | concentration at 4 h (in vivo [5]): 738 ng/g | concentration at 0.75 h (in vivo [6]): 323 ng/g | bioavailability at 24 h (in vivo [7]): > 100%
Structure (SMILES): NC(=O)Cc1nc2cc(OCc3ccc(F)cc3)ccc2[nH]1
viability at 24 h, 50 µM (in vitro): 99.4%
